Literature values, collected in PMC2834170 (Bioorganic & medicinal chemistry letters, 2010).

Test system: μ, δ and κ opioid receptors
Conditions: ratio of Ki values; ref [6]; cited from earlier work

Q: With `Oc1ccc2c(c1)[C@@]13CCCC[C@H]1[C@@H](C2)N(CC1CCC1)CC3` [Compound 1, butorphan] as the molecule, how does the “Selectivity μ/δ/κ” value read?
A: The value was 3/75/1.
